Experiments:
[1] = Testing of peptides for macroscopic membrane formation (phase-contrast microscope, Congo Red staining); format: physicochemical; set-up: key to membranous structure in DMEM / membranous structure in PBS / membranous structure in Water: The + and − denotes the presence and absence of the membranous structure, respectively.; The + and − denotes the presence and absence of the membranous structure, respectively
Text: The effect of length and sequence on membrane formation was examined using several peptides (Table 1 and Example 3). […] The peptide length should be more than 12 amino acids and preferably at least 16 residues. Very long peptides, e.g., of about 200 amino acids, may encounter problems due to insolubility and intramolecular interactions which destabilize membrane formation. Furthermore, peptides with a large amount of hydrophobic residues may have insolubility problems. The optimal lengths for membrane formation will probably vary with the amino acid composition.
Four non-amphiphilic peptides of varying amino acid sequence were tested for membrane formation; these are β-amyloid (1-28) (SEQ ID NO: 4), β-amyloid (23-35) (SEQ ID NO: 5), substance P (SEQ ID NO: 6), and spantide (SEQ ID NO: 7).
The EAK12 and EAK16 tested for membrane formation were acetylated and aminylated at both N- and C-terminal ends. Blocking of both of the N- and C-termini of EAK16 appeared not to be essential for membrane formation. The peptides were initially dissolved in water (5 mg/ml) or in 23% acetonitrile (10 mg/ml). A volume of 5-10 microliters of the dissolved peptides were applied to the DMEM medium, PBS or water. The formation of the membrane was first observed under a phase-contrast microscope and then, by the naked eye after staining with Congo Red.

[2] = format: physicochemical; conditions: secondary structure
Procedure: Circular dichroism (CD) spectra were taken on an Aviv Model 60DS spectropolarimeter using program 60HDS for data processing. Because EAK16 contains both positively and negatively charged residues, the peptide itself can serve as a buffer. CD samples were prepared and measured at 25° C., unless otherwise indicated. All reagents were ultrapure and solutions were filtered through a […] before use. Circular dichroism (CD) spectroscopy was used to monitor the stability of the β-sheet structure of EAK16 under various conditions. Dilute […] concentrations. […] A 3 mM stock EAK16 solution was mixed in water to a concentration of 20 μM, allowed to equilibrate, and the CD spectrum measured. The solution was then diluted five times by two-fold serial dilutions to final concentrations of […], 10, 5.0, 2.5, 1.25 and 0.625 μM, allowed to equilibrate and CD spectra taken. Reverse experiments, in which the concentration of peptide was increased by adding more peptide, were also done and similar results were obtained. Temperature. The CD spectra of 8 μM EAK16 at 25, 37, 55, 70 and 90° C. in water were measured. The ratios of ellipticity at 194 nm/217 nm remained approximately 4.0 over the temperature range of 25-90° C. […] EAK16 has a calculated pI Of 6.71. It was assumed that changes of pH would have a great effect on the β-sheet structure, especially when the charged groups are neutralized. […]

H2N-DAEFRHDSGYEV-HHQKLVFFAEDVGSNK-COOH [β-Amyloid (1-28), reference compound]
membranous structure in DMEM ([1]; DMEM medium): −
membranous structure in PBS ([1]; PBS): −
formation of macroscopic membranes ([1]; identical conditions, in words): None of these peptides produced macroscopic membranes
membranous structure in Water ([1]; water): −
Structure [2]: RC, α, β
